The assay deals with T1, EZH2 (Homo sapiens, UniProt Q15910).
T1 construct: GRITS37108
The assay can be described thus: EZH2 methyltransferase SPA assay (3H-SAM, Hela nucleosomes). Particulars: 10 nM EZH2, 7 μg/ml Hela nucleosomes, 2-parameter IC50 fit; single-point-in-time values. It is filed as biochemical.

Amino acid sequences for entries named in this document (tags omitted).
UniProt Q15910, whole entry: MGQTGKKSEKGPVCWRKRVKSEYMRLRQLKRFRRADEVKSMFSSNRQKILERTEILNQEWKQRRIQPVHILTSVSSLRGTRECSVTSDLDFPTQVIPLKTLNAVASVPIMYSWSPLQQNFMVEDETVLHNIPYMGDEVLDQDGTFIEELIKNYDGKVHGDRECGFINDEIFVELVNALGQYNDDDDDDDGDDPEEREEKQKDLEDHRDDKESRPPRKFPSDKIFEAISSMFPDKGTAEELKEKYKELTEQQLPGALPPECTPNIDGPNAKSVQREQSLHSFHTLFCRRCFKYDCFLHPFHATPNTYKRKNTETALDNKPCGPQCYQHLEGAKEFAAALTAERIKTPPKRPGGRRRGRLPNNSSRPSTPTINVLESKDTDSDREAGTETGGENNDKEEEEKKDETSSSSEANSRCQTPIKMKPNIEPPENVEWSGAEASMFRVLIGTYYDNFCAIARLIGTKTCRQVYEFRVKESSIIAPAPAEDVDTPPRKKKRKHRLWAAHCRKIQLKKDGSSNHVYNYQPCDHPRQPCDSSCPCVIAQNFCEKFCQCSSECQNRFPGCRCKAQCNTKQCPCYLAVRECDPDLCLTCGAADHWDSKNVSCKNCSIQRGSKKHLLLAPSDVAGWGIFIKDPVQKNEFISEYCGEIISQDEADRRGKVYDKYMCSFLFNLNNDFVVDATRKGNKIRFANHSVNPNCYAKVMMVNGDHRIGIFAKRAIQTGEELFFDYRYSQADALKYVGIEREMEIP

The substance “N-[(4,6-Dimethyl-2-oxo-1,2-dihydro-3-pyridinyl)methyl]-1-(1-methylethyl)-6-[6-(4-methyl-1-piperazinyl)-3-pyridinyl]-1H-pyrazolo[3,4-b]pyridine-4-carboxamide [Ex 82]” showed an IC50 of 108 nM. That is a sub-micromolar value.

The values are drawn from patent US8637509B2, “Azaindazoles” (GlaxoSmithKline LLC, priority 2010, dated 2014).
